Data from US12280055B2, “Combination therapies” (Mirati Therapeutics, Inc., priority 2021, dated 2025).

Test system: MIA PaCa-2 cells
Assay: MIA PaCa-2 tumor xenograft, tumor volume / tumor growth inhibition
Format: in vivo, mice
Conditions: Study Day 27; Table 1
Experimental: Immunocompromised nude/nude mice are inoculated in the right hind flank with cells or patient derived tumor samples harboring a KRas G12C mutation. When tumor volumes reach between 200-400 mm^3 in size, the mice are divided into four groups of 4-12 mice each. The first group is administered vehicle only. […] An optional group is administered with a single agent dose of the MEK inhibitor (VS-6766) that yields less than maximal biological effect. The final group is administered the single agent dose of the KRas G12C inhibitor in combination with the single agent dose of the SOS1 inhibitor or with single agent dose of the KRas G12C inhibitor in combination with the single agent dose of the SOS1 inhibitor and the single agent VS-6766. […] Tumor volumes are measured using a caliper every two-three days and tumor volumes are calculated by the formula: […].
16-32 nude/nude, Balb/c nude, or NOD/SCID mice per study were inoculated in the right hind limb with 5×10^6 of the indicated cell line or tumor fragment. […] An additional combination group with 0.3 mg/kg MEK inhibitor VS-6766 was included for the triple combination study.

## C=C(F)C(=O)N1CCN(c2nc(OC[C@@H]3CCCN3C)nc3c2CCN(c2cccc4cccc(Cl)c24)C3)C[C@@H]1CC#N [Adagrasib, 2-[(2S)-4-[7-(8-chloro-1-naphthyl)-2-[[(2S)-1-methylpyrrolidin-2-yl]methoxy]-6,8-dihydro-5H-pyrido[3,4-d]pyrimidin-4-yl]-1-(2-fluoroprop-2-enoyl)piperazin-2-yl]acetonitrile, reference compound]
  Average Tumor Volumes: 493 mm^3
